The assay has as its system L6. The assay is described as follows: Cytotoxicity against rat L6 cells after 6 days by Alamar blue assay. The class given is cell-based. In outline: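 Rat skeletal myoblast L6 cells seeded at 1 × 10^4 ml−1 in growth medium with a range of compound concentrations and held 6 days at 37 °C. Alamar Blue was then added and fluorescence read after a further 8 h. IC50 is the mean of triplicate experiments ± SEM.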
In general terms: Resazurin is reduced to fluorescent resorufin, in cell work by metabolically active cells.

By IC50 is commonly meant the point on the concentration scale where inhibition reaches its midpoint. Lower therefore signals greater potency in that assay.

Regarding `CCCCC1=CC2Cc3nc4ccccc4c(N)c3C(C1)C2` (stereo unspecified), half-maximal inhibition (IC50) required 6.75 µM.

Values taken from ChEMBL document CHEMBL1681701, “Huprines as a new family of dual acting trypanocidal-antiplasmodial agents” (Bioorg Med Chem, 2011).
